Measured values reported in ChEMBL document CHEMBL3352741, “Discovery of VU0431316: a negative allosteric modulator of mGlu5 with activity in a mouse model of anxiety” (Bioorg Med Chem Lett, 2014).

Protein sequences, listed by entry. Tags and fused reporters are not part of them.
UniProt P31424, whole entry: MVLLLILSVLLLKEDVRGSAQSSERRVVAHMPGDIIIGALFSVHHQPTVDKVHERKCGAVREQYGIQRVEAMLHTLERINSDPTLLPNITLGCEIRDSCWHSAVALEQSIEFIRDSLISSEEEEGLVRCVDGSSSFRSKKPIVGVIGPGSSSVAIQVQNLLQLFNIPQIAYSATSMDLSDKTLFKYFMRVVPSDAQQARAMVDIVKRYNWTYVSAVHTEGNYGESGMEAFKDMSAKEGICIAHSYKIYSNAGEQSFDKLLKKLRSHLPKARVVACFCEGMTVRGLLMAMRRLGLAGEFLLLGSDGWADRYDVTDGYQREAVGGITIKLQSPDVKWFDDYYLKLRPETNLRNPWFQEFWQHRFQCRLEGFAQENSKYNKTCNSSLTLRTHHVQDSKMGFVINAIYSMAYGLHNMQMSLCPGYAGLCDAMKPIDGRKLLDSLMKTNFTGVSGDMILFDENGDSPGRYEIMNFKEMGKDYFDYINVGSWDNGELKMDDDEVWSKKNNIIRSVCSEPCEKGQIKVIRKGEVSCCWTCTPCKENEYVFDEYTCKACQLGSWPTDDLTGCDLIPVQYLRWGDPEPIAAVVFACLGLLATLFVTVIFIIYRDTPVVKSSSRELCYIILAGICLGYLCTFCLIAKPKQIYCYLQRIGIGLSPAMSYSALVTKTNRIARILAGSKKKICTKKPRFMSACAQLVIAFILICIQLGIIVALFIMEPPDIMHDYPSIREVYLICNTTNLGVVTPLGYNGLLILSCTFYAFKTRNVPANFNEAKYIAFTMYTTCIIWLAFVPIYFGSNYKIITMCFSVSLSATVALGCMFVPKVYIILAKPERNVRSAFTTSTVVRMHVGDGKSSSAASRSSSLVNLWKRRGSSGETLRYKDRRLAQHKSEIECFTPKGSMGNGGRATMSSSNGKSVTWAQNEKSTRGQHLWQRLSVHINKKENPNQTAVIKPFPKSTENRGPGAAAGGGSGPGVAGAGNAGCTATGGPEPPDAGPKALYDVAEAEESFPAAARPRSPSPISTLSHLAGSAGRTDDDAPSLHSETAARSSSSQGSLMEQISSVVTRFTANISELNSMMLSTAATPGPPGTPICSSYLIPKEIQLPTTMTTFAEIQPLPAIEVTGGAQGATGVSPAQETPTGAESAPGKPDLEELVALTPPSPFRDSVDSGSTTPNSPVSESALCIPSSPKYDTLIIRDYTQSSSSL

biological target: Metabotropic glutamate receptor 5 (Rattus norvegicus, UniProt P31424); assay: Negative allosteric modulator activity at rat mGlu5 expressed in HEK293A cells assessed as reduction in glutamate-induced calcium mobilization; assay type: functional, cell-based, HEK293-A

| SMILES | IC50 [µM] |
| --- | --- |
| O=C(Nc1cncc(Oc2cncc(F)c2)n1)c1ccsc1 | 3.45 |
| O=C(Nc1cncc(Oc2cncc(F)c2)n1)c1ccccc1 | 8.65 |
| COc1cccc(C(=O)Nc2cncc(Oc3cncnc3)n2)c1 | 4.11 |
| Cc1cc(C)cc(C(=O)Nc2cncc(Oc3cncc(F)c3)n2)c1 | 6.6 |
| Cc1nc(C(=O)Nc2cncc(Oc3cncc(F)c3)n2)cs1 | 4.64 |
| COc1cccc(C(=O)Nc2cncc(Oc3cncc(F)c3)n2)c1 | 4.4 |
